# Antibody variant affinities, Ab-14 light chain, assay 1

Target peptide (SARS-CoV-2 spike, HR2 region): PDVDLGDISGINAS

Parent scFv Ab-14: VH joined to VL by three GGGGS repeats. Changes lie in the light chain CDRs alone.
VH: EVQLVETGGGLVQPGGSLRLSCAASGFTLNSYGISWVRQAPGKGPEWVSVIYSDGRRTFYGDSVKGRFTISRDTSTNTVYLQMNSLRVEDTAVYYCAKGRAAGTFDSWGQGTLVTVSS
VL: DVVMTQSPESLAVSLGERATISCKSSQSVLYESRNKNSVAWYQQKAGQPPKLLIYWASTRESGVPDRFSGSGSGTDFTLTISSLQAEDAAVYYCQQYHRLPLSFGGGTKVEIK

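Phage display of a naive human antibody library on the peptide gave the parent. Variants in AAYL50 differ from the parent at up to three CDR positions; double and triple changes were sampled at random. Affinity was read by AlphaSeq, a pooled yeast mating assay with surface-displayed partners. After mating in shaken culture at 30 °C for 16 h, diploids were selected and their barcode pairs sequenced. Each replicate has its own calibration line, from reference interactions of the BCL2 family. Each pool was mated in three replicate cultures.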

The parent's light chain CDRs are KSSQSVLYESRNKNSVA, WASTRES, QQYHRLPLS; each variant's own CDRs replace them letter for letter.
Values are log10 of the apparent Kd in nM; lower means stronger binding.
"n.d." means that the variant was in the library but no mating with the target was seen in that replicate; the authors take this as a sign of poor binding, and no number exists.
For reference, the parent read 0.65 as the reference entry and 1.68 as a member of this library.
Empty control strains, which show no peptide, gave a signal in 18% of pairings with library AAYL50; the median was 4.19 and 95% of these signals were weaker than 2.99. No background was subtracted. For each scFv, signals with the empty controls are counted beside the result, with their mean in brackets.

| # | CDR-L1 | CDR-L2 | CDR-L3 | replicates, log10 nM | control signals |
|---|---|---|---|---|---|
| 1 | KSSQSALYESRNKNSVA | WASTRES | QQYPQLPLS | 4.24 / n.d. / n.d. | 2/9 (3.87) |
| 2 | KCSQSVLYESRNKNSVA | WASMRES | QQYIRLPLS | 0.86 / 1.55 / 1.04 | 0/9 |
| 3 | KASQSVGYESRNKNSVA | WASTRES | QQYHRLPLS | 0.72 / 0.87 / 0.90 | 3/9 (4.05) |
| 4 | KSSQSDLYESRNKNHVA | TASTRES | QQYHRLPLS | 0.53 / 0.68 / 0.67 | 4/9 (3.94) |
| 5 | KSSQSFLYESRQKNSVA | WCSTRES | QQYHRLPLS | 3.51 / 2.88 / 2.85 | 1/9 (3.50) |
| 6 | KSSQQVLYESRNKNSVA | WASTRFS | QQYHRLELS | 1.84 / 1.91 / 1.31 | 1/9 (2.48) |
| 7 | KSSQSVLYESRRKNSVA | WASTRES | QQYHGLPTS | n.d. / n.d. / n.d. | 1/9 (3.24) |
| 8 | KSSQSVNYESRNRNSVA | WASNRES | QQYHRLPLS | 1.68 / 1.74 / 2.11 | 1/9 (3.61) |
| 9 | KSSQSVLYESRNKNSVA | WASTRES | QQYERGPLS | n.d. / 3.96 / n.d. | 0/9 |
| 10 | KSSQSVLYESRNKNSVA | WASTRES | QQYHNLKES | 0.86 / 1.08 / 1.01 | 2/9 (4.19) |
| 11 | WSSQSVLYESRNKNSVA | WASTRES | QQYHRLPLS | 1.93 / 2.05 / 2.46 | 0/9 |
| 12 | KSSQSVLYESRNKNSVA | WASTRES | QTYLDLPLS | n.d. / n.d. / n.d. | 2/9 (4.71) |
| 13 | KSHQSVLYESRNKNSVA | WASTKES | QQYHRLPAS | n.d. / n.d. / n.d. | 2/9 (3.70) |
| 14 | KSWMSVLYESRNKNSVA | WASTRES | QQYHRLPLS | 2.01 / 1.86 / 1.97 | 4/9 (4.49) |
| 15 | KSSQLILYESRNKNSVA | WGSTRES | QQYHRLPLS | 0.78 / 0.86 / 0.76 | 2/9 (4.48) |
| 16 | KSSQDVLYESNNKNSVA | WASTRES | TQYHRLPLS | 0.12 / 0.31 / 0.13 | 2/9 (3.96) |
| 17 | KSSQSVLYESRNKNQVA | WQSTRES | QQYHLLPLS | n.d. / 4.78 / n.d. | 0/9 |
| 18 | KSSRSVLYESRNKNSVA | WASTREY | QQYHRLPLS | 0.82 / 1.10 / 1.19 | 0/9 |
| 19 | KSSQSVLYESRNKNSVA | WASTRES | QQYHALPQG | 3.08 / 2.56 / 2.81 | 0/9 |
| 20 | KSSQSVLYEVRNKNSVA | WADTRMS | QQYHRLPLS | 1.35 / 1.65 / 1.49 | 2/9 (3.89) |
| 21 | KSSQKVLYESVNKNSVA | WASTRHS | QQYHRLPLS | 0.79 / 0.95 / 1.28 | 4/9 (3.87) |
| 22 | KSSQSVLYESRNKNSVA | WASTRES | SQYHRLVLK | 1.08 / 1.17 / 1.06 | 3/9 (4.19) |
| 23 | KSSQSVLVESRRKNSVK | WASTRES | QQYHRLPLS | n.d. / n.d. / n.d. | 0/9 |
| 24 | KSSQSVLYESFNKNSVA | WASTRES | QPDHRLPLS | n.d. / 4.43 / n.d. | 2/9 (4.10) |
| 25 | KSSQSVLYESRNKNSVA | WASTRES | RQYHRLWLS | 2.35 / 2.26 / 2.43 | 6/9 (4.44) |
| 26 | KSSQSVLSESRNSNSVA | WASTRES | QQYHHLPLS | 0.35 / 0.60 / 0.39 | 3/9 (4.76) |
| 27 | KSSQWVLYESRNKNSVA | WASTRES | QQMHRLALS | 2.31 / 2.17 / 2.81 | 3/9 (4.02) |
| 28 | KSSQSVLYESRNINSVA | WDSTRES | QQYHRLPLC | 3.17 / n.d. / n.d. | 2/9 (3.39) |
| 29 | KSSQSVLYESRNKNSVA | WAHERES | QQYHRLWLS | n.d. / 3.99 / n.d. | 3/9 (4.45) |
| 30 | KSSQSVLYESRNKNSVA | WASTRES | WQYHRLPCS | n.d. / n.d. / 2.39 | 0/9 |
| 31 | LSRQSVLYESRNKNSVA | WASTRES | QQYHRLPFS | 2.51 / 1.68 / 3.04 | 1/9 (3.33) |
| 32 | KSSHSVLYESSNKNSVA | WASTRES | QVYHRLPLS | 2.42 / 2.59 / 2.52 | 3/9 (2.93) |
| 33 | KSSQSVLYESRNKNSMA | WASTRWS | QQYHRLPES | n.d. / n.d. / 4.49 | 4/9 (4.73) |
| 34 | KSSQSVLYESRPKNSVA | WASTRES | QYYVRLPLS | 3.28 / 2.84 / 3.34 | 2/9 (4.42) |
| 35 | KCSQSVLYESRNKNSVA | WASTRES | QQSHRLPLL | n.d. / n.d. / n.d. | 0/9 |
| 36 | KSSQSVLYESRNKNSVA | WQSTRES | MQYHFLPLS | n.d. / n.d. / n.d. | 2/9 (4.90) |
| 37 | KSSQSVLYEKRNKNSVA | WDSTRES | QQYHRLPLI | 3.32 / 3.66 / 3.20 | 2/9 (4.83) |
| 38 | QSRQSVLYESRNKNSVA | WASTRES | QQYHRLPGS | n.d. / n.d. / n.d. | 1/9 (5.59) |
| 39 | ISSQSVLYVSRNKNSVA | WASTRES | QQYHRLPLA | n.d. / n.d. / n.d. | 0/9 |
| 40 | KSSQSVLYESRNNNSVK | WASTRES | QQYHRLPLS | 5.01 / 5.43 / 5.12 | 5/9 (5.02) |
| 41 | KSSGSVLYESRNKFSVA | WASTRES | QQYHRLTLS | n.d. / n.d. / n.d. | 1/9 (2.65) |
| 42 | KSSQSVMYESNNKNSVA | NASTRES | QQYHRLPLS | -0.17 / 0.20 / 0.51 | 2/9 (3.59) |
| 43 | KSSQDKLYESRYKNSVA | WASTRES | QQYHRLPLS | 1.90 / 1.80 / 1.96 | 3/9 (4.22) |
| 44 | KSSQSQLYESRNNNSVA | WASTRES | QHYHRLPLS | 5.37 / 4.47 / n.d. | 4/9 (4.05) |
| 45 | KSKPSVLYESRNKESVA | WASTRES | QQYHRLPLS | 2.18 / 3.44 / n.d. | 1/9 (2.23) |
| 46 | KSSQSVLYESRNKNSVE | IHSTRES | QQYHRLPLS | n.d. / n.d. / n.d. | 0/9 |
| 47 | KSSQSVLYESRNKGSVA | WASTEES | QQYHRLPLS | 2.37 / 3.00 / 2.58 | 6/9 (4.49) |
| 48 | KSSQSVLSPSRNDNSVA | WASTRES | QQYHRLPLS | 0.03 / 0.38 / 0.19 | 2/9 (5.54) |
| 49 | KSSQSVLYESRNKNSVA | WARTRES | QQYHRLPLS | 2.05 / 2.08 / 2.39 | 0/9 |
| 50 | KSSQSRLYESRNKNSVA | WASPRES | QQYHRLPLS | n.d. / n.d. / n.d. | 2/9 (3.47) |
| 51 | KSCQSVLYESRNKNSVA | WASTNES | QQTHRLPLS | 6.95 / n.d. / n.d. | 4/9 (5.00) |

Top 4 of the variants detected in all replicates, tightest first:

| CDR-L1 | CDR-L2 | CDR-L3 | replicates, log10 nM | control signals |
|---|---|---|---|---|
| KSSQSVMYESNNKNSVA | NASTRES | QQYHRLPLS | -0.17 / 0.20 / 0.51 | 2/9 (3.59) |
| KSSQDVLYESNNKNSVA | WASTRES | TQYHRLPLS | 0.12 / 0.31 / 0.13 | 2/9 (3.96) |
| KSSQSVLSPSRNDNSVA | WASTRES | QQYHRLPLS | 0.03 / 0.38 / 0.19 | 2/9 (5.54) |
| KSSQSVLSESRNSNSVA | WASTRES | QQYHHLPLS | 0.35 / 0.60 / 0.39 | 3/9 (4.76) |

From the AlphaSeq antibody data of Engelhart et al. 2022 (doi:10.1038/s41597-022-01779-4), copy in the FLAb collection.